Our source for the inhibition values is PubChem BioAssay AID1259372 (The Scripps Research Institute Molecular Screening Center, 2018).

Chains of the proteins cited; added tags and fusions are not shown. Lines headed by an entry give the natural chain unless they say otherwise; changes in a name come on top.
UniProt O75030: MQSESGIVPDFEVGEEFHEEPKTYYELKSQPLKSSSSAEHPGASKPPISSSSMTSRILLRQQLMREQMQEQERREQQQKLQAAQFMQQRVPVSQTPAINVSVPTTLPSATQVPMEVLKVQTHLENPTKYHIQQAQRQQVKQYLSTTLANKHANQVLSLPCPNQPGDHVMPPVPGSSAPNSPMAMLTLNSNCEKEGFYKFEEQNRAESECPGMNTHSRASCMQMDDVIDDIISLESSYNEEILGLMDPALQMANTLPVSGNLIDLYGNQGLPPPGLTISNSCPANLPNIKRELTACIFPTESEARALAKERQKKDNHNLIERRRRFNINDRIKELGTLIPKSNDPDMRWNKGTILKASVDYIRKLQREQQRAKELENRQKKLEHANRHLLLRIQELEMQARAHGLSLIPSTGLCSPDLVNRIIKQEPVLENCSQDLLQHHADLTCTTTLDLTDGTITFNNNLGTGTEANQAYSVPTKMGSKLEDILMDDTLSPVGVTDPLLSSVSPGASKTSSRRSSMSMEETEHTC

This is a selection; strong and weak results do not stand in their true shares. The source made the active and inactive calls.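 Rule for the calls: active = inhibition above a cutoff derived from the DMSO control wells (cut at about 28% in these data); inactive = the rest.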

This assay deals with Microphthalmia-associated transcription factor (Homo sapiens) (UniProt O75030). In words: MITF inhibitors, retest of hits, confirmation, biochemical, AlphaScreen, triplicate (AID 1259372). To be noted: AlphaScreen MITF homodimerization, biotin/His-MITF beads; at 2.6 µM; hits give high values.
`Cc1ccc([N+](=O)[O-])c2no[n+]([O-])c12`: the inhibition is active: 75.2%. For `CC(C)OP(=O)(OC(C)C)C(=O)c1ccco1`, the inhibition is active: 70.8%.

Take `CCOP(=O)(CN)OCC`: the inhibition is inactive: 6.96%.

In general, inhibition refers to the change of the read-out against control, counted positive when it falls.
